The chains behind the UniProt entries cited, without tags or fusion partners.
UniProt P34913, whole entry: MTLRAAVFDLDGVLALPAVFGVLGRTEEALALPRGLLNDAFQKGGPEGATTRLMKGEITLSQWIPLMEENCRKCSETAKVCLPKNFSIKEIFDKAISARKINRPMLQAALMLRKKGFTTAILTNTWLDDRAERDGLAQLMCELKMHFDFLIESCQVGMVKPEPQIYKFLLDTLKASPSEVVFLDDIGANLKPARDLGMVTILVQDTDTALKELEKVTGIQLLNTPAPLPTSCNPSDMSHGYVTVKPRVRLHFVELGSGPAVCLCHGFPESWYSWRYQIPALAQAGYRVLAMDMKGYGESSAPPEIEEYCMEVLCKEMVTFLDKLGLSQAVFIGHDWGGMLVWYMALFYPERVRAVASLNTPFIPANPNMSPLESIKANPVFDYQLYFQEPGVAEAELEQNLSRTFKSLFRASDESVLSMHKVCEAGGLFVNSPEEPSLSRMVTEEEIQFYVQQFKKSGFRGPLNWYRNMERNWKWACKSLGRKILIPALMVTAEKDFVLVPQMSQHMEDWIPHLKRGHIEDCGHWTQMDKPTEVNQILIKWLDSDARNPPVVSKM

In ChEMBL document CHEMBL1671815, “A practical use of ligand efficiency indices out of the fragment-based approach: ligand efficiency-guided lead identification of soluble epoxide hydrolase inhibitors” (J Med Chem, 2011):

Target: Bifunctional epoxide hydrolase 2 (Homo sapiens, UniProt P34913)
Assay: Inhibition of human soluble epoxide hydrolase in cell free system

N#Cc1ccc(C(=O)N[C@H]2C[C@@H]2c2ccccc2)cc1 (racemic)
IC50 (read-out: IC50): 565 nM | IC50 (read-out: pIC50 (converted)): 562 nM
